Assays:
[1] = target: bromodomain protein BRD4 BD2 (Homo sapiens, UniProt O60885); experiment: HTRF in vitro assay, inhibitory activity against BRD4 BD2; details: read-out: BRD4(BD2) IC50, BRD4(2) 30 nM in final system
[2] = target: bromodomain protein BRD4 BD1 (Homo sapiens, UniProt O60885); experiment: HTRF in vitro assay, inhibitory activity against BRD4 BD1; details: read-out: BRD4(BD1) IC50, BRD4(1) 30 nM in final system

Row | Structure (SMILES) | IC50 [1] [nM] | IC50 [2] [nM]
1 | CCNC(=O)c1cc2c(C(c3ccccc3)c3ccc(OC)cc3)cn(C)c(=O)c2[nH]1 (centres unmarked) | 10 to 100 | 100 to 1000
2 | Cc1nocc1-c1cc2c(=O)n(C)cc(C(C)c3ccccc3)c2o1 (centres unmarked) | < 10 | 100 to 1000
3 | CCNC(=O)c1cc2c(C(c3ccccc3)c3ccc(O)cc3)cn(C)c(=O)c2[nH]1 (centres unmarked) | 10 to 100 | 100 to 1000
4 | CC(c1ccccc1)c1cn(C)c(=O)c2[nH]c(C(=O)NCC(F)(F)F)cc12 (centres unmarked) | < 10 | 100 to 1000
